We go through one compound from patent US11299480B2.

Data set [1] can be described thus: Aqueous solubility (PBS, SGF, SIF).
A short description of data set [2]: Human liver microsomal (HLM) metabolic stability. To be noted: human liver microsomes.
A short description of data set [3]: Mouse liver microsomal (MLM) metabolic stability. A general note: Liver microsomes are vesicles of endoplasmic reticulum, rich in cytochrome P450 enzymes.
In data set [4] the test system is Caco-2 cells. Description: Cell membrane permeability, Caco-2 cells assay. For orientation: Caco-2 cells form a polarised layer with tight junctions and transporters.

Each structure is given as a SMILES string. In brackets after ≈: the same amount, converted by molar mass. A value given as a limit tells only on which side of the number the result lay.

Turning to `CN(CC(=O)N(Cc1ccc(C2CCCCC2)cc1)c1ccc(C(=O)NO)cc1)S(=O)(=O)c1c(F)c(F)c(F)c(F)c1F`, in data set [1], the “solubility in PBS buffer pH 7.4” value was determined as 0.3 μg/mL and the “solubility in simulated intestinal fluid (SIF)” value is 74 µg/mL (≈ 118 µM). In addition, the “Solubility PBS” value in data set [1] (PBS buffer pH 7.4) was 0.3 micrograms/milliliter. Further, in data set [1] (simulated intestinal fluid), the “Solubility SIF” value is reported as 74 micrograms/milliliter. For the same compound, in data set [2], the “HLM t1/2” value is on record as at least 17 min and the “Metabolic Stability Half-Life HLM” value turned out to be 19 min. For the same compound, the “Metabolic Stability Half-Life MLM” value in data set [3] (mouse liver microsomes) worked out at 17 min. Further, the “RLM t1/2” value in data set [3] (printed as RLM, method and Table 1 say mouse liver microsomes (MLM)) is at least 17 min. For the same compound, the “Caco-2 Cells Recovery A to B” value in data set [4] (apical to basolateral, second number of cell) turned out to be 2%. The “Caco-2 Cells Recovery B to A” value in data set [4] (basolateral to apical, second number of cell) came out at 8%. The Caco-2 permeability entry in data set [4] (compounds with cyclohexyl group instead of THP ring) is on record as “no appreciable permeability”.
